Molecular target: Transient receptor potential cation channel subfamily V member 1 (Rattus norvegicus) (UniProt O35433)
Test: Antagonist activity at rat TRPV1 receptor expressed in CHO cells assessed as decrease in capsaicin-induced intracellular 45Ca2+ uptake after 1 hr by […] analysis relative to untreated control
Assay type: functional, cell-based

Chains of the proteins cited; added tags and fusions are not shown.
UniProt O35433, whole entry: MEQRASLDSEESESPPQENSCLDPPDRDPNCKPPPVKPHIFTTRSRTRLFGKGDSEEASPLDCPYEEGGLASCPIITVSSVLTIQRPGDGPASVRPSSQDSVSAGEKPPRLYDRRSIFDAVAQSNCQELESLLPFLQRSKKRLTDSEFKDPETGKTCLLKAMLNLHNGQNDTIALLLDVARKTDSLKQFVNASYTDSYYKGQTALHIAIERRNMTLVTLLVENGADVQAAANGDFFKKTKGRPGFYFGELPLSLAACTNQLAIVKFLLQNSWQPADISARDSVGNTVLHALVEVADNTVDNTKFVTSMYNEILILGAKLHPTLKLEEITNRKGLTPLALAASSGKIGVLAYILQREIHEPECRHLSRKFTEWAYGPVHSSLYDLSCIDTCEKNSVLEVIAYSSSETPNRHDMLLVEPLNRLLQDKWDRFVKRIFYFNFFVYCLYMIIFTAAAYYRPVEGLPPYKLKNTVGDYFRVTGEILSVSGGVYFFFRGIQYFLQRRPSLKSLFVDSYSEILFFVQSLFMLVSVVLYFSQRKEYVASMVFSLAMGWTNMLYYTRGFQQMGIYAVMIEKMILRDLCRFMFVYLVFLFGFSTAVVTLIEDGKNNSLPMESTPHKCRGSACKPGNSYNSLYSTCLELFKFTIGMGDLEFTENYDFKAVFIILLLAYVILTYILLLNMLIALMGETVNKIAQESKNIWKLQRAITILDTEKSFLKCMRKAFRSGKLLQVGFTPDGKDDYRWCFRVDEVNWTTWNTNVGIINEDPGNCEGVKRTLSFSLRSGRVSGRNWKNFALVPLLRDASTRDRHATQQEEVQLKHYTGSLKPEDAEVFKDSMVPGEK

| Efficacy | SMILES |
| --- | --- |
| 34% | CC(C(=O)NCc1ccc(C(C)(C)C)cc1)c1ccc(NS(C)(=O)=O)c(N2CCOCC2)c1 (configuration not stated) |
| 37% | CC(C(=O)NCc1ccc(C(C)(C)C)cc1)c1ccc(NS(C)(=O)=O)c(N2CCCCC2)c1 (configuration not stated) |

From ChEMBL document CHEMBL2040748, “N-4-t-Butylbenzyl 2-(4-methylsulfonylaminophenyl) propanamide TRPV1 antagonists: Structure-activity relationships in the A-region” (Bioorg Med Chem, 2012)
